{"source": "PubChem BioAssay AID651654", "about": "(Broad Institute, 2012)", "note": "Only a part is listed here, and it is no random draw. Some salts and complexes are drawn in separate pieces, as the source files them; their charges need not balance. Active and inactive are the calls of the source.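 How the source made its calls: active means mean lysis activity across replicates of at least 80%, whatever share of replicates individually reach that level; inactive means mean lysis activity below 80%.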", "data": [{"experiment": "Cryptococcus neoformans cell lysis inducers, primary screen, AK release luminescence, single concentration (AID 651654)", "details": "C. neoformans lysis, adenylate kinase release luminescence, 4 h; at 15 µM; stronger effect = higher value; normalised: neutral wells 0, clomiphene wells 100", "outline": "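read-out = cell lysis signal | test system = log-phase Cryptococcus neoformans yeast cells | input = cells at 5 × 10^6 per mL | medium = fresh YPD growth medium | signal = luminescent adenylate kinase detection reagent | timing = 4 h at 37 °C static, read 1 h later | dosing = single dose | controls = Clomiphene as positive lysis control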", "values": [{"smiles": "O=[N+]([O-])c1cc([N+](=O)[O-])c(Nc2ccccn2)c([N+](=O)[O-])c1", "lysis activity": "inactive: -11%"}, {"smiles": "COc1ccccc1OP(C)(=O)Nc1ccc(C)cc1C", "note": "(stereo unspecified)", "lysis activity": "inactive: 0.807%"}, {"smiles": "CP(=O)(Nc1ccccn1)Oc1ccccc1", "note": "(stereo unspecified)", "lysis activity": "inactive: -0.91%"}, {"smiles": "CCc1ccc(OP(C)(=O)O)cc1", "lysis activity": "inactive: -1.93%"}, {"smiles": "COc1ccccc1OP(C)(=O)Nc1ccc(Br)cc1", "note": "(stereo unspecified)", "lysis activity": "inactive: -0.373%"}, {"smiles": "COc1ccc(OP(C)(=O)Nc2ccccn2)cc1", "note": "(stereo unspecified)", "lysis activity": "inactive: 11.6%"}, {"smiles": "CN(C)CCOC(=O)C(O)(c1ccccc1)C1CCCC1", "note": "(stereo unspecified)", "lysis activity": "inactive: 1.46%"}, {"smiles": "CP(=O)(Nc1ccc(Cl)cc1Cl)Oc1ccccc1", "note": "(stereo unspecified)", "lysis activity": "inactive: 0.178%"}, {"smiles": "O=C1C(O)=C([N+](=O)[O-])C(=O)C(O)=C1[N+](=O)[O-]", "lysis activity": "inactive: 1.33%"}, {"smiles": "COc1ccccc1OP(C)(=O)Nc1ccc(C)c(C)c1", "note": "(stereo unspecified)", "lysis activity": "inactive: -2.4%"}, {"smiles": "CCOC(=O)c1ccc(NP(C)(=O)Oc2ccc(Cl)cc2)cc1", "note": "(stereo unspecified)", "lysis activity": "inactive: -2.59%"}, {"smiles": "CP(=O)(OC12CC3CC(CC(C3)C1)C2)OC12CC3CC(CC(C3)C1)C2", "lysis activity": "inactive: 0.079%"}, {"smiles": "COc1ccccc1OP(C)(=O)Nc1ccccc1Br", "note": "(stereo unspecified)", "lysis activity": "inactive: 0.517%"}, {"smiles": "CC(C)(C)c1ccc(OP(C)(=O)O)cc1", "lysis activity": "inactive: 1.67%"}, {"smiles": "CP(=O)(Nc1ccc(Cl)cc1)Oc1ccc(F)cc1", "note": "(stereo unspecified)", "lysis activity": "inactive: -0.59%"}, {"smiles": "COc1ccc(OP(C)(=O)Nc2ccc(Br)cc2)cc1", "note": "(stereo unspecified)", "lysis activity": "inactive: 1.18%"}, {"smiles": "CCN(CC)CC(O)COC(=O)C(O)(c1ccccc1)C1CCCCC1", "note": "(stereo unspecified)", "lysis activity": "inactive: -1.1%"}, {"smiles": "O=C(OCCCN1CCCC1)C(O)(c1ccccc1)C1CCCCC1", "note": "(stereo unspecified)", "lysis activity": "inactive: -0.898%"}, {"smiles": "COc1ccccc1OP(C)(=O)Nc1c(C)n(C)n(-c2ccccc2)c1=O", "note": "(stereo unspecified)", "lysis activity": "inactive: 1.52%"}, {"smiles": "CCc1ccc(OP(C)(=O)Nc2cccnc2)cc1", "note": "(stereo unspecified)", "lysis activity": "inactive: -1.13%"}, {"smiles": "CP(=O)(Oc1ccccc1)N1CCOC1=O", "note": "(stereo unspecified)", "lysis activity": "inactive: -2.46%"}, {"smiles": "CP(=O)(Nc1ccc2c(c1)OCCO2)Oc1ccccc1", "note": "(stereo unspecified)", "lysis activity": "inactive: -2.09%"}, {"smiles": "Cc1ccccc1NP(C)(=O)Nc1ccccc1C", "lysis activity": "inactive: -0.772%"}, {"smiles": "CCOP(C)(=S)SCC(=O)NC(C)(CC)C(=O)O", "note": "(stereo unspecified)", "lysis activity": "inactive: -4.97%"}, {"smiles": "O=[N+]([O-])c1ccc(OP2(=O)COCCO2)cc1", "note": "(stereo unspecified)", "lysis activity": "inactive: -5.82%"}, {"smiles": "Cc1cc(-c2cccc3ccccc23)c(C)cn1.O=[N+]([O-])c1cc([N+](=O)[O-])c(O)c([N+](=O)[O-])c1", "lysis activity": "inactive: 13.5%"}, {"smiles": "Cc1c(C(c2ccc3c(c2)OCO3)c2c(C)n(C)n(-c3ccccc3)c2=O)c(=O)n(-c2ccccc2)n1C.O=[N+]([O-])c1cc([N+](=O)[O-])c(O)c([N+](=O)[O-])c1", "lysis activity": "inactive: 4.21%"}, {"smiles": "COc1ccc(OP(C)(=O)Nc2cccc(Br)c2)cc1", "note": "(stereo unspecified)", "lysis activity": "inactive: 0.258%"}, {"smiles": "CN(C)CCOC(=O)C(O)(c1ccccc1)C1CCCCC1", "note": "(stereo unspecified)", "lysis activity": "inactive: 3.83%"}, {"smiles": "COc1ccc(NP(C)(=O)Oc2ccccc2OC)cc1", "note": "(stereo unspecified)", "lysis activity": "inactive: -0.327%"}, {"smiles": "Cc1c([N+](=O)[O-])cc([N+](=O)[O-])c(Br)c1[N+](=O)[O-]", "lysis activity": "inactive: -1.49%"}, {"smiles": "CCN(CC)CCCOC(=O)C(O)(c1ccccc1)C1CCCCC1", "note": "(stereo unspecified)", "lysis activity": "inactive: 0.944%"}, {"smiles": "CP(=O)(Nc1ccccc1)Oc1ccc(F)cc1", "note": "(stereo unspecified)", "lysis activity": "inactive: -0.731%"}, {"smiles": "O=[N+]([O-])c1cc([N+](=O)[O-])c(OC2CCCCC2O)c([N+](=O)[O-])c1", "note": "(stereo unspecified)", "lysis activity": "inactive: 6.03%"}, {"smiles": "CCCCCOc1ccc(NP(C)(=O)Oc2ccc(Cl)cc2Cl)cc1", "note": "(stereo unspecified)", "lysis activity": "inactive: -0.521%"}, {"smiles": "CCOC(=O)c1ccc(NP(C)(=O)Oc2ccc(F)cc2)cc1", "note": "(stereo unspecified)", "lysis activity": "inactive: 0.029%"}, {"smiles": "O=C(OCCN1CCN(CCOCc2ccccc2)CC1)C(O)(c1ccccc1)c1ccccc1", "lysis activity": "inactive: 1.79%"}, {"smiles": "COc1ccc2c(c1O)-c1c(O)c(OC)cc3c1[C@H](C2)[N+](C)(C)CC3.O=[N+]([O-])c1cc([N+](=O)[O-])c([O-])c([N+](=O)[O-])c1[O-]", "lysis activity": "inactive: -0.96%"}, {"smiles": "O=[N+]([O-])c1cc([N+](=O)[O-])c(Nc2ccc(Cl)cc2)c([N+](=O)[O-])c1", "lysis activity": "inactive: -3.95%"}, {"smiles": "CP(=O)(Nc1ccccc1F)Oc1ccccc1", "note": "(stereo unspecified)", "lysis activity": "inactive: -2.23%"}, {"smiles": "Cc1ccc(C)c(NP(C)(=O)Oc2ccccc2)c1", "note": "(stereo unspecified)", "lysis activity": "inactive: -1.06%"}, {"smiles": "Cc1cc(C)cc(OP(C)(=O)Nc2ccccn2)c1", "note": "(stereo unspecified)", "lysis activity": "inactive: 0.488%"}, {"smiles": "COc1ccccc1OP(C)(=O)Nc1cccc(Br)c1", "note": "(stereo unspecified)", "lysis activity": "inactive: 1.71%"}, {"smiles": "Cc1cc(C)cc(OP(C)(=O)Nc2ccc(C)cc2C)c1", "note": "(stereo unspecified)", "lysis activity": "inactive: -4.04%"}, {"smiles": "CC1=NCCc2c1[nH]c1ccccc21.O=[N+]([O-])c1cc([N+](=O)[O-])c(O)c([N+](=O)[O-])c1", "lysis activity": "inactive: -3.22%"}, {"smiles": "O=C(O)c1cccc(Nc2c([N+](=O)[O-])cc([N+](=O)[O-])cc2[N+](=O)[O-])c1", "lysis activity": "inactive: -6.14%"}, {"smiles": "COc1ccccc1OP(C)(=O)Nc1c(C)cccc1C", "note": "(stereo unspecified)", "lysis activity": "inactive: 0.113%"}, {"smiles": "CCCOc1ccc(NP(C)(=O)Oc2ccc(Cl)cc2)cc1", "note": "(stereo unspecified)", "lysis activity": "inactive: -0.803%"}, {"smiles": "CCOC(=O)C(CC)C1=NC(C)(C)Cc2ccccc21.O=[N+]([O-])c1cc([N+](=O)[O-])c(O)c([N+](=O)[O-])c1", "note": "(stereo unspecified)", "lysis activity": "inactive: 0.061%"}, {"smiles": "CC1=C2N=C(C=C3N=C(C(C)=C4[N-][C@@](C)([C@@H]5N=C1[C@](C)(CCC(=O)NC[C@@H](C)OP(=O)([O-])O[C@H]1[C@@H](O)[C@@H](n6cnc7cc(C)c(C)cc76)O[C@@H]1CO)[C@H]5CC(N)=O)[C@@](C)(CC(N)=O)[C@@H]4CCC(N)=O)[C@@](C)(CC(N)=O)[C@@H]3CCC(N)=O)C(C)(C)[C@@H]2CCC(N)=O.[C-]#N.[Co+3]", "lysis activity": "inactive: -1.23%"}, {"smiles": "O=[N+]([O-])c1cc([N+](=O)[O-])c(Nc2nnnn2CCO)c([N+](=O)[O-])c1", "lysis activity": "inactive: -2.51%"}, {"smiles": "O=[N+]([O-])c1cc([N+](=O)[O-])c(-c2cnn(-c3ccccc3)c2)c([N+](=O)[O-])c1", "lysis activity": "inactive: -11.1%"}, {"smiles": "Cc1nc2ccc3ccccc3c2s1.O=[N+]([O-])c1cc([N+](=O)[O-])c(O)c([N+](=O)[O-])c1", "lysis activity": "inactive: 6.49%"}, {"smiles": "O=[N+]([O-])c1cc([N+](=O)[O-])c(-n2nnc3ccccc32)c([N+](=O)[O-])c1", "lysis activity": "inactive: -0.13%"}, {"smiles": "CN(Cc1cccnc1)C(=O)COc1ccc(Cl)c(Cl)c1.O=[N+]([O-])c1cc([N+](=O)[O-])c(O)c([N+](=O)[O-])c1", "lysis activity": "inactive: 2.71%"}, {"smiles": "CCOC(=O)c1ccc(NP(C)(=O)Oc2ccc(OC)cc2)cc1", "note": "(stereo unspecified)", "lysis activity": "inactive: 3.21%"}, {"smiles": "O=[N+]([O-])c1cc([N+](=O)[O-])c(O)c([N+](=O)[O-])c1.c1ccc(Oc2ccncc2)cc1", "lysis activity": "inactive: 2.23%"}, {"smiles": "CCOP(C)(=S)SCC(=O)NC(C)C(=O)O", "note": "(stereo unspecified)", "lysis activity": "inactive: 0.328%"}, {"smiles": "CP(=O)(Nc1ccccn1)Oc1ccc(Cl)cc1", "note": "(stereo unspecified)", "lysis activity": "inactive: 0.956%"}, {"smiles": "CP(=O)(Oc1ccccc1)OC(c1ccccc1)C(F)(F)F", "note": "(stereo unspecified)", "lysis activity": "inactive: -0.141%"}, {"smiles": "Cc1cccc(C)c1OP(C)(=O)Nc1ccc(SC(F)(F)F)cc1", "note": "(stereo unspecified)", "lysis activity": "inactive: -1.24%"}, {"smiles": "Cc1ccc(Nc2c([N+](=O)[O-])cc([N+](=O)[O-])cc2[N+](=O)[O-])cc1", "lysis activity": "inactive: -3.36%"}, {"smiles": "CP(=O)(Nc1ccc(SC(F)(F)F)cc1)Oc1ccc(Cl)cc1", "note": "(stereo unspecified)", "lysis activity": "inactive: -0.096%"}, {"smiles": "CCc1ccc(OP(C)(=O)N2CCN(c3ccc([N+](=O)[O-])cc3)CC2)cc1", "note": "(stereo unspecified)", "lysis activity": "inactive: 6.14%"}, {"smiles": "CP(=S)(Nn1cnnc1)Oc1ccccc1", "note": "(stereo unspecified)", "lysis activity": "inactive: -3.66%"}, {"smiles": "Cc1ccc(NP(C)(=O)Oc2ccccc2)c(C)c1", "note": "(stereo unspecified)", "lysis activity": "inactive: 1.2%"}, {"smiles": "COc1ccccc1OP(C)(=O)Nc1ccc(C)cc1", "note": "(stereo unspecified)", "lysis activity": "inactive: 2.28%"}, {"smiles": "CCOC(=O)c1ccc(NP(C)(=O)Oc2ccccc2)cc1", "note": "(stereo unspecified)", "lysis activity": "inactive: 0.698%"}, {"smiles": "Cc1cc(C)cc(OP(C)(N)=O)c1", "note": "(stereo unspecified)", "lysis activity": "inactive: 0.473%"}, {"smiles": "COc1ccc(OP(C)(=O)Nc2cccc(F)c2)cc1", "note": "(stereo unspecified)", "lysis activity": "inactive: -1.26%"}, {"smiles": "O=[N+]([O-])c1cc([N+](=O)[O-])c(Nc2cccnc2)c([N+](=O)[O-])c1", "lysis activity": "inactive: 1.94%"}]}]}
